Assay outcomes: PubChem BioAssay, National Center for Advancing Translational Sciences (NCATS)
ALDH1A1 block = inhibitors of human aldehyde dehydrogenase 1A1; actives 7.3% (n = 220,000); P00352; Potency, µM (highest dose often 75.3 µM), usual class: inhibitors; Purified ALDH1A1, NADH fluorescence, propionaldehyde substrate; active = well fitted inhibition curve with a large enough effect, not every such curve was filed as active; inconclusive = small, poorly fitted or top-dose-only effect, or another doubt; inactive = no such curve, though single readings can be large or run the other way
Lamin A splicing = LMNA splicing modulation | HeLa LMNA splicing GFP/RFP minigene ratio, 48 h | Potency, µM (titrated, usually from 46.1 µM), most hits filed as inhibitors | actives 0.01% (n = 200,000); active = well fitted inhibition curve with a large enough effect in the signal ratio, with a control signal flat, not every such curve was filed as active; inconclusive = small, poorly fitted or top-dose-only effect, or effect the other way, or a change in a side signal; the % refers to the signal ratio
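S3 HeLa cells stably expressing lamin A-EGFP splicing minigene plus DsRed2, 600 cells/well, 48 h compound exposure at 37C. Laser-scanning cytometry; analysed as GFP (500-530 nm)/RFP (575-640 nm) total intensity ratio; 0.5% DMSO vehicle.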
Sfp PPTase inh = inhibitors of Bacillus subtilis Sfp phosphopantetheinyl transferase | Biochemical Sfp PPTase activity, qHTS | Potency, µM, most hits filed as inhibitors | actives 3.5% (n = 310,000) | AID 1490;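 note: the enzyme is Sfp with the accession as filed and its product quenches rhodamine fluorescence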
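Reaction rates are the 30-min fluorescence difference (ex 525, em 598 nm) in wells containing 15 nM Sfp, 5 uM rhodamine-CoA and 12.5 uM BHQ-2-YbbR at pH 7.6 with 10 mM MgCl2.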
JMJD2E inh = inhibitors of human JMJD2E histone demethylase. actives 1.6% (n = 230,000). JMJD2E catalytic domain, FDH-coupled NADH fluorescence (FDH is formaldehyde dehydrogenase). Potency, µM (doses to about 57.1 µM), actives largely listed as inhibitors; active = well fitted inhibition curve with a large enough effect, not every such curve was filed as active; inconclusive = small, poorly fitted or top-dose-only effect, or another doubt; inactive = no such curve, though single readings can be large or run the other way; note: nearly all actives have a fitted effect of over 50% in size
miR-21 FLuc = raises the signal of a miR-21 reporter | HeLa miR-21 FLuc reporter, luciferase, 48 h | Potency, µM (doses to about 38.3 µM) | 340,000 tested, under 10 active | AID 2288; active = well fitted rising curve with a large enough effect; inconclusive = small, poorly fitted or top-dose-only effect; inactive = no such curve, though single readings can be large or run the other way;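 note: miR-21 action dims this reporter so a rising signal means less miR-21 action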
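Using DMEM plus 10% FBS, HeLa miR-21-FLuc cells are incubated with test compounds (final up to about 40uM) for 48 hours; firefly luciferase signal is then imaged following reagent-mediated lysis.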
G9a block = blocks human histone lysine methyltransferase G9a. G9a H3K9 monomethylation, AlphaScreen, 2 h. Potency, µM (top dose mostly 102 µM), most hits filed as inhibitors. actives 8.8% (n = 350,000); note: nearly all actives have a fitted effect of over 75% in size
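G9a (20 nM) preincubated 15 min RT with compounds, then 500 nM biotinylated H3K9 peptide and 20 uM SAM added; 2 h RT reaction. Monomethyl-H3K9 product detected by AlphaScreen with anti-H3K9me1 antibody, streptavidin donor and anti-rabbit IgG acceptor beads.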
Numbers stand for hits; . = inactive; ? = inconclusive; / = no result given; [ ] = dose if it differs, or a comment. Most compounds without a hit are left out; they make up all but 13% or so of the library. Unless noted, calls come from the whole dose curve; as a rule, active = well fitted curve in the direction sought with a large enough effect; inconclusive = small, poorly fitted or top-dose-only effect, or another doubt; inactive = no such curve, though single readings can be large; an effect the other way counts as inactive or inconclusive.

SMILES | ALDH1A1 block | Lamin A splicing | Sfp PPTase inh | JMJD2E inh | miR-21 FLuc | G9a block
CCOC(=O)NC1c2ccccc2Oc2ccccc21 | / | / | . | . | . | /
Cc1ccccc1Cn1c2ccccc2c2cnn(CC(=O)NCCc3ccc(Cl)cc3)c(=O)c21 | / | / | / | / | . | .
CCn1c(CNC(=O)c2cccnc2)cc2ccccc21 | / | / | . | / | . | .
CCc1ccc(CCC(=O)Nc2nc(CC(C)=O)ns2)o1 | ? | . | ? | . | . | 71µM
CCc1ccc(CCC(=O)Nc2ccc(C)c(C)c2)o1 | 13µM | . | . | . | . | .[12.7 µM]
Cc1ccc(CCC(=O)NCc2ccccc2)o1 | / | / | . | / | . | 79µM
O=C(CCc1ccccc1)NCc1ccccc1 | . | . | . | . | . | .
Cc1ccc(CCC(=O)Nc2ccc(C#N)cc2)o1 | / | / | . | / | . | 40µM
CC1=C(C(=O)NCc2ccccc2C)C2(CCCCCC2)OC1=O | / | ? | / | / | . | .
COc1ccccc1CN1CC(C(=O)N2CCC(C(=O)c3ccccc3)CC2)CCC1=O (stereo not drawn) | / | / | . | / | . | .
CC(NC(=S)NCc1ccccc1)C12CC3CC(CC(C3)C1)C2 (stereo not drawn) | ? | .[9.22 µM] | . | . | . | ?
CNc1nc(CC(C)=O)ns1 | . | . | . | . | . | 79µM
CCCCNc1nc(CC(C)=O)ns1 | . | . | . | . | . | .
Cc1ccc(NCCC(=O)c2ccc(Cl)cc2)cc1 | 1.4µM | ? | . | . | . | .[12.7 µM]
Cc1ccc(NCCC(=O)c2ccc(Br)cc2)cc1 | 0.79µM | ? | . | . | . | .
CCc1ccc(NCCC(=O)c2ccc(Br)cc2)cc1 | . | ? | . | . | . | .
COc1ccc(-n2c(=O)c(C)nc3cnc(Nc4ccccc4)nc32)cc1 | . | / | . | / | / | .[12.7 µM]
COc1cccc(Nc2ncc3nc(C)c(=O)n(C)c3n2)c1 | . | . | . | / | / | .[0.501 µM]
CCOC(=O)c1ccccc1NC(=O)N1CCC(CN2CCCCC2)CC1 | / | . | / | / | . | .
O=C(N/N=C/c1ccc(O)cc1O)c1ccc(CN2C(=O)c3cccc4cccc2c34)cc1 | . | ? | . | ? | . | 79µM
CSc1ccc(C2c3c(oc4ccc(F)cc4c3=O)C(=O)N2c2ccc(C)cn2)cc1 (stereo not drawn) | / | / | / | / | . | .
CCCCN(CC)c1nc(-c2ccncc2)nc2ccccc12 | ? | . | ? | ? | . | 3.5µM
CCCCN(CCCC)c1nc(-c2ccccc2)nc2ccccc12 | / | / | / | / | . | .
COc1ccccc1-n1c(SCC(N)=O)nnc1-c1ccc(S(=O)(=O)N2CCCCC2)cc1 | 4.5µM | . | . | . | . | .
COc1ccccc1-n1c(SCC(=O)N2CCCC2)nnc1-c1ccccc1 | / | / | . | . | . | .[12.7 µM]
SMILES | ALDH1A1 block | Lamin A splicing | Sfp PPTase inh | JMJD2E inh | miR-21 FLuc | G9a block
NC(=O)CSc1nnc(-c2ccc(S(=O)(=O)N3CCCCC3)cc2)n1-c1ccccc1 | 16µM | . | . | ? | . | ?
CCn1c(SCC(=O)O)nnc1-c1ccc(S(=O)(=O)N2CCCC2)cc1 | / | / | . | / | . | ?
Nc1ccc(/C=C/C(=O)c2ccco2)cc1 | . | . | . | . | . | .
N#Cc1ccc(/C=C/C(=O)c2ccco2)cc1 | . | ? | ? | . | . | 14µM
CC1(C)C(c2ccccc2)=[N+]([O-])CN1O | 7.9µM | . | . | . | . | .
CC(C)C(=O)NC(c1ccco1)c1ccc2cccnc2c1O (stereo not drawn) | . | ? | . | ? | ? | .
Oc1c(C(Nc2cccc(C(F)(F)F)c2)c2ccncc2)ccc2cccnc12 (stereo not drawn) | 18µM | ? | . | ? | . | 28µM
Oc1c(C(Nc2nc3ccccc3s2)c2ccco2)ccc2cccnc12 (stereo not drawn) | . | ? | . | ? | . | 25µM
Cc1cccc(NC(c2cccc(Cl)c2)c2ccc3cccnc3c2O)n1 (stereo not drawn) | / | / | / | / | . | .
Oc1c(C(Nc2nccs2)c2ccc(C(F)(F)F)cc2)ccc2cccnc12 (stereo not drawn) | . | / | . | 3.5µM | . | .
ONCc1ccccc1 | / | / | 13µM | / | / | /
Cc1onc(-c2c(F)cccc2Cl)c1C(=O)ONC(=O)c1ccco1 | / | / | . | ? | . | 50µM
Cc1onc(-c2c(F)cccc2Cl)c1C(=O)NCc1ccccc1 | / | / | . | / | . | .
Cc1onc(-c2c(Cl)cccc2Cl)c1NC(=O)NNc1ccccc1 | . | / | . | . | . | 40µM
Cc1onc(-c2c(Cl)cccc2Cl)c1C(=O)NNc1ccccc1 | 22µM | / | . | ? | . | /
COCC(=O)Nc1ccc(S(=O)(=O)N2CCCC2)cc1 | / | / | . | / | . | .
CC(C)N(C)C | . | / | / | / | / | /
CCn1c(/C(C#N)=C/c2ccccc2Cl)nc2ccccc21 | / | ? | / | / | . | .
Cn1c(/C(C#N)=C/c2ccccc2Br)nc2ccccc21 | / | / | / | / | . | 0.4µM
Cc1ccc(C)c(N2CCN(C(=O)C3CCN(S(=O)(=O)c4cn(C)cn4)CC3)CC2)c1 | / | . | / | / | . | .
COc1cc(/C(C)=N/NC(=O)CSc2nncn2C)ccc1OCc1ccccc1Cl | 5µM | . | . | . | . | ?
COc1ccccc1NC(=O)c1ccc(NC(=O)CSc2nncn2C)cc1 | . | . | . | . | . | 11µM
COc1ccccc1NC(=O)c1ccc(NC(=O)COC(=O)C(C)C)cc1 | 0.89µM | ? | . | . | . | .
CCOc1cc(/C=N/NC(=O)CSc2nncn2C)ccc1OCc1ccccc1 | . | ? | . | . | . | .
CN(C)c1ncnc2ccc(-c3ccccc3C(F)(F)F)cc12 | ? | ? | . | / | / | .[0.501 µM]
SMILES | ALDH1A1 block | Lamin A splicing | Sfp PPTase inh | JMJD2E inh | miR-21 FLuc | G9a block
N#CCCn1c(=O)c(-c2ccc(F)cc2)nc2cnc(Oc3ccccc3)nc21 | ? | / | . | / | / | .[12.7 µM]
O=C(CCC(=O)N1CCOc2ccc(Cl)cc21)NCCCN1CCC(Cc2ccccc2)CC1 | / | / | . | / | . | .
COc1ccc(OCc2nnc3n2N=C(c2ccc(OC)cc2)CS3)cc1 | ? | . | . | . | . | 50µM
CCCc1ccc(C2=Nn3c(nnc3C(C)C)SC2)cc1 | / | / | 22µM | / | . | 8.9µM
COc1ccc(C2=Nn3c(nnc3-c3ccncc3)SC2)cc1 | . | . | . | . | . | ?
COc1ccc(C2=Nn3c(C)nnc3SC2)cc1 | / | / | . | / | . | 45µM
Brc1ccc(-c2ccc(CNCCSc3nnnn3-c3ccccc3)o2)cc1 | / | / | / | / | ? | 16µM
Clc1ccc(-c2ccc(CNCCSc3nnnn3-c3ccccc3)o2)cc1 | / | / | / | / | . | ?
Cc1cccc(CSc2nnnn2-c2ccccc2)c1 | ? | . | . | . | . | .
Cc1ccc(CSCCNS(=O)(=O)c2ccccc2)cc1 | ? | . | . | . | . | .
Cc1ccc(C)c(-n2nnnc2Sc2nnnn2-c2ccccc2)c1 | 22µM | ? | . | . | ? | .
Cc1ccc(S(=O)(=O)NCCSc2nnnn2-c2cc(C)ccc2C)cc1 | 0.89µM | ? | . | . | . | .[12.7 µM]
Cc1ccc(S(=O)(=O)NCCSc2nnc(N)s2)cc1 | . | . | . | . | . | 13µM
